Literature values as cited in patent US20070208041A1, “Compositions for the treatment and prevention of heart disease and methods of using same” (priority 2005, published 2007).

Tested on: phenylephrine-constricted rat aorta
Settings: with benomyl

O=[N+]([O-])OCC(CO)(CO)CO[N+](=O)[O-]
effect of ALDH-2 inhibitor benomyl on vasodilator response: not affected
